Assays:
[1] = molecular target: Prostaglandin G/H synthase 1 (Homo sapiens, UniProt P23219); test: Inhibition of human COX-1
Homo sapiens = species on record: Homo sapiens; test: Selectivity ratio of IC50 for human COX1 to IC50 for human COX2

By UniProt entry, the sequences of proteins in these tests, tags left out.
UniProt P23219, whole entry: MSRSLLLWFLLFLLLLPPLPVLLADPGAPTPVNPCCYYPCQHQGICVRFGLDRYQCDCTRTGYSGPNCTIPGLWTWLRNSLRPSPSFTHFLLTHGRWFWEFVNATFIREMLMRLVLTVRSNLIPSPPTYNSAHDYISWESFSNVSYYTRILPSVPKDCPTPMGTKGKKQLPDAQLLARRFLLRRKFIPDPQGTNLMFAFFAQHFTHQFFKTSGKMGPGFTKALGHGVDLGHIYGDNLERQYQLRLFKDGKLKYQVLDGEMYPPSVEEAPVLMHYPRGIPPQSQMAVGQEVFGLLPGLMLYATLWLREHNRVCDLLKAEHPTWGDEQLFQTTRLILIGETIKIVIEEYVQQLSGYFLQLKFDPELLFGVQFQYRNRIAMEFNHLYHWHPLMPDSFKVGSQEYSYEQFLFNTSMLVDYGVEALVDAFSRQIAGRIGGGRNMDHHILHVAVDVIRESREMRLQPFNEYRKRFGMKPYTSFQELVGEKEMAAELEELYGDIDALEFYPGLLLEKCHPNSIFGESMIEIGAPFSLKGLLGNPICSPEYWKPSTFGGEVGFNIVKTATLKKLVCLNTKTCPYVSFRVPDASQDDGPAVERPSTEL

Compound	IC50 [1] [nM]	Ratio IC50 (Homo sapiens)
Cc1cc(OC(F)(F)F)cc2c1OC(C(F)(F)F)C(C(=O)O)=C2 (centres undefined)	140	9
Cc1cc(OC(F)(F)F)cc2c1O[C@H](C(F)(F)F)C(C(=O)O)=C2	2690	–
Cc1cc(OC(F)(F)F)cc2c1O[C@@H](C(F)(F)F)C(C(=O)O)=C2	62700	–

— ChEMBL document CHEMBL1287644, “The novel benzopyran class of selective cyclooxygenase-2 inhibitors. Part III: the three microdose candidates” (Bioorg Med Chem Lett, 2010)
